Measurements: article PMC10059965, “Tsaokoic Acid: A New Bicyclic Nonene from the Fruits of Amomum tsao-ko with Acetylcholinesterase Inhibitory Activity” (Molecules, 2023)

Protein sequences, listed by entry. Tags and fused reporters are not part of them. Residues count along the entry.
UniProt P22303, 32-614: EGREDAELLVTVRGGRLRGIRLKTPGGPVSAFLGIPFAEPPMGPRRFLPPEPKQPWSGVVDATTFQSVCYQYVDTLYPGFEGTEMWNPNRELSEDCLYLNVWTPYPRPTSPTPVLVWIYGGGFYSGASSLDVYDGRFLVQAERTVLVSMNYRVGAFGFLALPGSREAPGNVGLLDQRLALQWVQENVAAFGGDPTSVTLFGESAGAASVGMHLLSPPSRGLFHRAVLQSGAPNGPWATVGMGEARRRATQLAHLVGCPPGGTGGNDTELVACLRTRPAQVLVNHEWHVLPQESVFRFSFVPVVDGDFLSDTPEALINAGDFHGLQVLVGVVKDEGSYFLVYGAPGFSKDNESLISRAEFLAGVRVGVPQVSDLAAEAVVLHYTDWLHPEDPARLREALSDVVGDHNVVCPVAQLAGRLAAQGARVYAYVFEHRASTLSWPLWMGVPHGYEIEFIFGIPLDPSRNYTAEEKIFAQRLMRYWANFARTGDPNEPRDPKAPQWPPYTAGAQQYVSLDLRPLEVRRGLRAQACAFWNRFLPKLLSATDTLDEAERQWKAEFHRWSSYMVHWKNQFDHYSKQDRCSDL

Biological target: AChE (Homo sapiens, UniProt P22303)
Experiment: biochemical

With COc1ccc2cc3[n+](cc2c1OC)CCc1cc2c(cc1-3)OCO2 [berberine, reference compound] the IC50 was 190 nM.
